Experimental findings from patent US20120165310A1, “ETHER DERIVATIVES OF BICYCLIC HETEROARYLS” (NOVARTIS AG, priority 2009, published 2012) are described below.

The chains behind the UniProt entries cited, without tags or fusion partners. Residues count along the entry.
UniProt P08069, 31-1367 limits assumed: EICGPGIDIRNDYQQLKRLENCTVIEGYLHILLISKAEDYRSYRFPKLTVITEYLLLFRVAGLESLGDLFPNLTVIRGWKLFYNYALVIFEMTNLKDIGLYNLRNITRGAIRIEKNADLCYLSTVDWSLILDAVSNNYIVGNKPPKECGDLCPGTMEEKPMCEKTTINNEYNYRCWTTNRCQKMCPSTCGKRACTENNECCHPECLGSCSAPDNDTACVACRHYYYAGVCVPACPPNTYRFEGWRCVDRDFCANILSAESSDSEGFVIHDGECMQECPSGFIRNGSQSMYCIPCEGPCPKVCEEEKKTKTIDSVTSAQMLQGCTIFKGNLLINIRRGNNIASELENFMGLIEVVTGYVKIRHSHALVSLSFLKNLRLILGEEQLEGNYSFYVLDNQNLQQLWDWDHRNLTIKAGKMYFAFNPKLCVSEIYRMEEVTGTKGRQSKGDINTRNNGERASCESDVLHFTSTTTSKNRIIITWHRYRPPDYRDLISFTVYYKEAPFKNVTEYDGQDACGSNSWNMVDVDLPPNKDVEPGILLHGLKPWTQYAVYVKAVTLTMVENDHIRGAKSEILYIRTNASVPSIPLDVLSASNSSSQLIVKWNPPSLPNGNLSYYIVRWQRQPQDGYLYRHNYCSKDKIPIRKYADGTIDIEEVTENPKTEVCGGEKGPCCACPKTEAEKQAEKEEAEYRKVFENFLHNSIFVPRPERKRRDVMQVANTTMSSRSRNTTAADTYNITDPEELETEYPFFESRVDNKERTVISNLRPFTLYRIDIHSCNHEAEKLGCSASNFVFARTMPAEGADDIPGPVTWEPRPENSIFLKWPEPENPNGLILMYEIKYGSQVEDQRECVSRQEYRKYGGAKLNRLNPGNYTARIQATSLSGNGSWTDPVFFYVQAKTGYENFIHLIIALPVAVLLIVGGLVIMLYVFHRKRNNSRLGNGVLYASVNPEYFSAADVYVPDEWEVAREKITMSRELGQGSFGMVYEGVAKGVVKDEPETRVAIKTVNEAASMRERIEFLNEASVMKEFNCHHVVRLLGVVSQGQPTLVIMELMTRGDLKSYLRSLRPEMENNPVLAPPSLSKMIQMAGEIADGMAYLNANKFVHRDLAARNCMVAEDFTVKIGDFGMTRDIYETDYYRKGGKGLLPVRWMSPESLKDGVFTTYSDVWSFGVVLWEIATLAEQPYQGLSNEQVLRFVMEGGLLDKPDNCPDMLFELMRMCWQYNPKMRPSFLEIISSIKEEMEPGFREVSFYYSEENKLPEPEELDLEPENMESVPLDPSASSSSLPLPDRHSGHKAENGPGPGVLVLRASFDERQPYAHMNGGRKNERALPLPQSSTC

The term IC50 denotes the midpoint of a concentration-inhibition curve.

The experiment concerns the target IGF-1R (Homo sapiens, UniProt P08069). In words: Cellular IGF-1R assay: capture ELISA (MSD) of receptor phosphorylation in Hek293 cells. Particulars: read-out: IGF-1R IC50; Hek293-IGF1R cells, 1 h pre-incubation, 10 min IGF stimulation, pIGF1R capture ELISA. On the technique in general: ELISA stands for enzyme-linked immunosorbent assay.

As to `Nc1ncnc2c1c(-c1cccc(OCC3CCCCO3)c1)cn2[C@H]1C[C@@H](CN2CCCS(=O)(=O)CC2)C1` (stereo partly shown), the IC50 came out at 293 nM.
